Data published in patent US7763644B2, “Imidazole derivatives, processes for preparing them and their uses” (UCB Pharma, S.A., priority 2003, dated 2010).

Protein sequences, listed by entry. Tags and fused reporters are not part of them.
UniProt Q02563, whole entry: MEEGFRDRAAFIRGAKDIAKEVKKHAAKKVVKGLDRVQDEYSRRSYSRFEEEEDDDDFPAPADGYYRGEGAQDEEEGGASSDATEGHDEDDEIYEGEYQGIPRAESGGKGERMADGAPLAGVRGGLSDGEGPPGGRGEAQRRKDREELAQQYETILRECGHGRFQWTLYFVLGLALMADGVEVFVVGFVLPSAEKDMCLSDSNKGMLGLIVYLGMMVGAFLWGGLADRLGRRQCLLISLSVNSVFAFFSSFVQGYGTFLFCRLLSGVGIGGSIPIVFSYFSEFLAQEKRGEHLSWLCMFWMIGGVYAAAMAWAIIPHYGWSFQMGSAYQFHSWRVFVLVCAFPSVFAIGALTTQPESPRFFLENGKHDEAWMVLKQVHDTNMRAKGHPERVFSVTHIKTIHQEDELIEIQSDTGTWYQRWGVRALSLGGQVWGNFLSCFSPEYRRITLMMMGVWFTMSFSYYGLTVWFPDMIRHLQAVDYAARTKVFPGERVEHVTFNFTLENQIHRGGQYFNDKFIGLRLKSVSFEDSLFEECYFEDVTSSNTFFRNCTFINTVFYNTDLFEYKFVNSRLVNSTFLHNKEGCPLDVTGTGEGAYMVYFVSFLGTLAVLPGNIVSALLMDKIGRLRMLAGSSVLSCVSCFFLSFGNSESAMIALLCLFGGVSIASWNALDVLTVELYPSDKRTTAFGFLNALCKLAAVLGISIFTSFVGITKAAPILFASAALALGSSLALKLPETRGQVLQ

Biological target: T1, LBS (Rattus norvegicus, UniProt Q02563)
T1 construct: from tissue; host or cells: rat brain (crude membranes)
Test: Saturation binding of [^3H]-compound 7 to crude rat brain membranes
Conditions: 4° C., 120 min, read-out: Kd of [^3H]-compound 7, saturation binding curves
Protocol: FIG. 1 depicts the saturation binding curves of [^3H]-compound 7 with rat brain membranes. Y-axis represents bound to free radioligand ratio: B/F (fmol/assay/nM) and X-axis represents bound radioligand: B (fmol/assay).
This example describes the binding properties of [^3H]-compound 7. Binding experiments were conducted on crude rat brain membranes at 4° C. as described in Noyer M. et al. (Euro. J. Pharmacol. (1995), 286, 137-146). Incubation time for equilibrium studies was 120 min. [^3H]-compound 7 (25 Ci/mmol) was used at a concentration of 0.4 nM in 0.5 ml of a Tris-HCl (pH 7.4) buffer containing 2 mM Mg^2+. […] The Bmax being similar to the value estimated using [^3H]-L059 as radioligand in similar membrane preparations (5 pmol/mg protein). […] The pKi of compound 7 (7.5) agrees well with the KD of [^3H]-compound 7 as determined by the saturation binding curve (FIG. 2).

For “[^3H]-(+)-4-(3-azido-2,4-difluorophenyl)-1-(1H-imidazol-1-ylmethyl)pyrrolidin-2-one [[^3H]-compound 7]”, the Kd was 13 nM.
